Source: patent US20140120083A1 (published 2014)

Chains of the proteins cited; added tags and fusions are not shown. Lines headed by an entry give the natural chain unless they say otherwise; changes in a name come on top.
UniProt O00329: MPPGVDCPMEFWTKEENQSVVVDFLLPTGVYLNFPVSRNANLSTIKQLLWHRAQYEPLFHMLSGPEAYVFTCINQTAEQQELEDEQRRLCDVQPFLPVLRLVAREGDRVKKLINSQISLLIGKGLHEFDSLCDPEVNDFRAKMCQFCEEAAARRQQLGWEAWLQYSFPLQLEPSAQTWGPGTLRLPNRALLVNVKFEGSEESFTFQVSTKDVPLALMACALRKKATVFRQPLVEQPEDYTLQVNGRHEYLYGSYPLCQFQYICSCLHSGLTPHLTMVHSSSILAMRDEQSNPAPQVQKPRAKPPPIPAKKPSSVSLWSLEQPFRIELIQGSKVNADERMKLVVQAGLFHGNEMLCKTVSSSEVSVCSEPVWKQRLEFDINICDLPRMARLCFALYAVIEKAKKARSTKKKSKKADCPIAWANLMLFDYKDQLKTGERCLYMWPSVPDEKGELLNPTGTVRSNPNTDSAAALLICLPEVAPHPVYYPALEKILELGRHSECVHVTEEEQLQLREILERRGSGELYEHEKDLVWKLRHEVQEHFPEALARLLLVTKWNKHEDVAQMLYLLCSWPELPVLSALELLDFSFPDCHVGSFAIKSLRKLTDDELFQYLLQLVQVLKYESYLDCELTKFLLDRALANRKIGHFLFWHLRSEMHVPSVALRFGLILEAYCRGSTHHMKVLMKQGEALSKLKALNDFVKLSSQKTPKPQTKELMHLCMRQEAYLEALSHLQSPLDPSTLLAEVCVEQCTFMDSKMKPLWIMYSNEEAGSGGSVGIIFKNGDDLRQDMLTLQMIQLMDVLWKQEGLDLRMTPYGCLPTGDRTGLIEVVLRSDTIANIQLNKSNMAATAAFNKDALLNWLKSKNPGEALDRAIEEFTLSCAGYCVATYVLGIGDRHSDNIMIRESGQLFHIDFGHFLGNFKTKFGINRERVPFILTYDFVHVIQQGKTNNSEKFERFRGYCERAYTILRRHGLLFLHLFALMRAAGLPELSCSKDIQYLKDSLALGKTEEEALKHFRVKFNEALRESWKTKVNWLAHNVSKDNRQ

Molecular target: PI3K δ (Homo sapiens, UniProt O00329)
Experiment: In vitro IC50, PI3K δ
Type: biochemical

Compound | IC50 [nM]
Cc1ccccc1-n1c(Cn2nc(-c3cc(O)cc(F)c3)c3c(N)ncnc32)cc2cccc(C)c2c1=O [Compound 7] | < 100
CC(=O)Nc1nc2ccc(-c3nn(Cc4cc5cccc(C)c5c(=O)n4-c4ccccc4C)c4ncnc(N)c34)cc2s1 [Compound 53] | < 100
